# AlphaSeq binding of Ab-14 light chain variants to a spike HR2 peptide

Binding partner: SARS-CoV-2 spike HR2 peptide, sequence PDVDLGDISGINAS.

Each scFv is VH, a 15-residue (Gly4Ser)3 linker, VL, as in the parent Ab-14, and differs from it in the CDRs of the light chain only.
VH: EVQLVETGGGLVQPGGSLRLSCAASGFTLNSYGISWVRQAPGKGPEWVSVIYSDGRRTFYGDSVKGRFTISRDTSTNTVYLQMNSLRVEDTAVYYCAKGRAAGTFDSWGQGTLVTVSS
VL: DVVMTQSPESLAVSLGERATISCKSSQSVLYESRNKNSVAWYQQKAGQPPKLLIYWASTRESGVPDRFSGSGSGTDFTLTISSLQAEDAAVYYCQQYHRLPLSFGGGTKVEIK

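The parent was found by panning a naive human phage display library on the peptide. AAYL50 was designed without a model: most single CDR substitutions and a random sample of double and triple ones. AlphaSeq pools MATa yeast showing the antibodies with MATalpha yeast showing the peptide. Mating (16 h, 30 °C) was followed by selection of diploids and sequencing of their barcodes. A regression on co-assayed BCL2-family reference pairs converts the normalised counts of each replicate to an apparent Kd. Each pool was mated in three replicate cultures.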

Variants are written as CDR1, CDR2 and CDR3 of the light chain (limits as in the source). Parent: KSSQSVLYESRNKNSVA, WASTRES, QQYHRLPLS.
Every variant below is changed at E61 of the VL (sequential numbering).
Kd is apparent (estimated from mating counts) and averaged on the log scale over replicates with a signal. Smaller is tighter.
A pair that was not seen in any replicate is written "nd"; this usually means weak binding, but a binder can also be missed.

The variant KSSQSVLYESRNKNSVC | WASTYRS | QQYHRLPLS gave nd (0 of 3 replicates).
The variant KSSQSVLYESRNKNSVA | WASTRPS | QQYHRLPLS gave 37 nM (3 of 3 replicates).
The variant KQSQSVLYESRNYNSVA | WASTRRS | QQYHRLPLS gave 65 nM (3 of 3 replicates).
The variant KSCLSVLYESRNKNSVA | WASTRFS | QQYHRLPLS gave 3.3 µM (2 of 3 replicates).
The variant KSRQSVLIESRNKNSVA | WASTRIS | QQYHRLPLS gave 110 nM (3 of 3 replicates).
The variant KSSYSVLYESRNKNSVA | WASTRWS | QQGHRLPLS gave 470 nM (3 of 3 replicates).
The variant KSSQSVLYESRNKNSVA | WASTRHS | QQYNRLPLP gave nd (0 of 3 replicates).
The variant KSSSSVLYESRNKMSVA | WASTRDS | QQYHRLPLS gave 110 nM (2 of 3 replicates).
The variant KSSQSVLYESRNKNSVA | WASTRNS | QQYHKLPLS gave 2.1 µM (3 of 3 replicates).
The variant KSSQSVSYESRNKNSVA | WASNRTS | QQYHRLPLS gave 25 nM (3 of 3 replicates).
The variant KSSQSVLYESRNLNSGA | WASTRYS | QQYHRLPLS gave nd (0 of 3 replicates).
The variant KSSQSVLYESRNKNSVA | WASYRHS | QQYHRLPLC gave 190 nM (3 of 3 replicates).
The variant KSSQSVLYESRNKNSVA | CASTRGS | QQYSRLPLS gave 50 nM (3 of 3 replicates).
The variant KSSQSVLYESRNKNSVA | WASTRRS | QQPHRLPLV gave 60 µM (2 of 3 replicates).
The variant KSSQCVLYESRNKNSMA | WASTRFS | QQYHRLPLS gave nd (0 of 3 replicates).
The variant KSSQSVLYESRNKNSVA | WQSTRGS | QQMHRLPLS gave 170 µM (1 of 3 replicates).
The variant KSSQSVLYESRNKNSVA | WAACRWS | QQYHRLPLS gave 26 µM (2 of 3 replicates).
The variant KSSQSVLYESRNKNSVA | WASTRQS | QQYHRLPQN gave nd (0 of 3 replicates).
The variant KSSQSVLYESRNKNSAE | WASTRCS | QQYHRLPLS gave 1.2 µM (1 of 3 replicates).
The variant KSSQSVLAESRNKNSFA | WASTRCS | QQYHRLPLS gave nd (0 of 3 replicates).
The variant KSSQSVLYESRNKNSVA | WASTRKS | QQYHRLPPS gave 18 µM (2 of 3 replicates).
The variant KSSQSVLYESRNKNSVA | WASTRKS | QQYIRLPLS gave 5.4 µM (2 of 3 replicates).
The variant KSIQSVLYESRNKNSVA | WAATRVS | QQYHRLPLS gave 33 nM (3 of 3 replicates).
The variant KSSQQVLYESRNKNSVA | WWSTRGS | QQYHRLPLS gave nd (0 of 3 replicates).
The variant KSSQSVLYESRNKNSVA | WASTRQS | QQYHRLPLY gave 200 nM (3 of 3 replicates).
The variant KSSQSVLVESRNRNSVA | WASTRFS | QQYHRLPLS gave 8.0 nM (3 of 3 replicates).
The variant KSSQSVLYESRNKNSVA | WANTRHS | QQYHMLPLS gave 28 nM (3 of 3 replicates).
The variant KSSQSVLYESRNKNSVA | WASTRHS | QQYHRLPLS gave 16 nM (3 of 3 replicates).
The variant KSSQSVLYGSRNKNSVA | WASTRDS | QQYHRSPLS gave 18 µM (1 of 3 replicates).
The variant KSSQSVLYESRNKNPVA | WASTRTS | QQYHRLPLS gave 58 nM (3 of 3 replicates).
The variant KSSQSVLYESRNKNSVA | WASTRTS | QPYHRLPSS gave 55 nM (3 of 3 replicates).
The variant KSSQSILYESRNKNMVA | WASTRCS | QQYHRLPLS gave 170 nM (2 of 3 replicates).
The variant KDSQSTLYESRNKNSVA | WASTRLS | QQYHRLPLS gave 5.3 nM (3 of 3 replicates).
The variant KSSQSVLSESRNKNSVA | WASTRTS | QQYHRLPLI gave 8.5 nM (3 of 3 replicates).
The variant KSSQSVLYVSRPKNSVA | WASTRCS | QQYHRLPLS gave 550 nM (3 of 3 replicates).
The variant KSSQSVLYESRNKHSVA | WASTRFS | QEYHRLPLS gave 190 nM (3 of 3 replicates).
The variant KSSQSVLYESRNKNSVA | WASTRLS | GQYHRLPLS gave 16 nM (3 of 3 replicates).
The variant KISQSVLYESRNKNSVL | WASTRKS | QQYHRLPLS gave 59 µM (2 of 3 replicates).
The variant VFSQSVLYESRNKNSVA | WASTRFS | QQYHRLPLS gave 9.7 nM (3 of 3 replicates).
The variant KSSQSVLYESRNKNWVA | WASTRQS | QQYHRLPLS gave nd (0 of 3 replicates).
The variant KSSQSVLYESRNKNIVA | WTSTRGS | QQYHRLPLS gave nd (0 of 3 replicates).
The variant KSSQSVLYESRNKNSVA | WSSTRNS | QQYHRLPLS gave 35 nM (3 of 3 replicates).
The variant KSSQSGLYESRNKNSVA | WANTRCS | QQYHRLPLS gave 2.9 nM (3 of 3 replicates).
The variant KHSQSVLYESRNKNSVA | WASPRGS | QQYHRLPLS gave 7.9 µM (2 of 3 replicates).
The variant KSSQSLLYESRNKNSVA | WASDRSS | QQYHRLPLS gave 10 nM (3 of 3 replicates).
The variant CSSQNVLYESRNKNSVA | WASTRIS | QQYHRLPLS gave 270 nM (3 of 3 replicates).
The variant KSYQSGLYESRNKNSVA | WASTRHS | QQYHRLPLS gave 54 nM (3 of 3 replicates).

Repeated from above, the 7 best binders with a signal in all replicates:

{"CDR-L1": "KSSQSGLYESRNKNSVA", "CDR-L2": "WANTRCS", "CDR-L3": "QQYHRLPLS", "Kd (apparent)": "2.9 nM", "detected": "3 of 3"}
{"CDR-L1": "KDSQSTLYESRNKNSVA", "CDR-L2": "WASTRLS", "CDR-L3": "QQYHRLPLS", "Kd (apparent)": "5.3 nM", "detected": "3 of 3"}
{"CDR-L1": "KSSQSVLVESRNRNSVA", "CDR-L2": "WASTRFS", "CDR-L3": "QQYHRLPLS", "Kd (apparent)": "8.0 nM", "detected": "3 of 3"}
{"CDR-L1": "KSSQSVLSESRNKNSVA", "CDR-L2": "WASTRTS", "CDR-L3": "QQYHRLPLI", "Kd (apparent)": "8.5 nM", "detected": "3 of 3"}
{"CDR-L1": "VFSQSVLYESRNKNSVA", "CDR-L2": "WASTRFS", "CDR-L3": "QQYHRLPLS", "Kd (apparent)": "9.7 nM", "detected": "3 of 3"}
{"CDR-L1": "KSSQSLLYESRNKNSVA", "CDR-L2": "WASDRSS", "CDR-L3": "QQYHRLPLS", "Kd (apparent)": "10 nM", "detected": "3 of 3"}
{"CDR-L1": "KSSQSVLYESRNKNSVA", "CDR-L2": "WASTRHS", "CDR-L3": "QQYHRLPLS", "Kd (apparent)": "16 nM", "detected": "3 of 3"}

Empty control strains, which show no peptide, gave a signal in 18% of pairings with library AAYL50; the median was 15 µM and 95% of these signals were weaker than 970 nM. No background was subtracted.
For reference, the parent read 4.4 nM as the reference entry and 48 nM as a member of this library.

Source: Engelhart et al. 2022 (doi:10.1038/s41597-022-01779-4), MIT Lincoln Laboratory and A-Alpha Bio; data file from the FLAb repository.